Consider one compound from ChEMBL document CHEMBL5226314, “Discovery, Structure-Activity Relationship, and Mechanistic Studies of 1-((3R,4S)-3-((Dimethylamino)methyl)-4-hydroxy-4-(3-methoxyphenyl)piperidin-1-yl)-2-(2,4,5-trifluorophenyl)ethan-1-one as a Novel Potent Analgesic” (J Med Chem, 2021).

Sequences of proteins named here, by UniProt entry; tags and fusion partners are left off.
UniProt P35372, whole entry: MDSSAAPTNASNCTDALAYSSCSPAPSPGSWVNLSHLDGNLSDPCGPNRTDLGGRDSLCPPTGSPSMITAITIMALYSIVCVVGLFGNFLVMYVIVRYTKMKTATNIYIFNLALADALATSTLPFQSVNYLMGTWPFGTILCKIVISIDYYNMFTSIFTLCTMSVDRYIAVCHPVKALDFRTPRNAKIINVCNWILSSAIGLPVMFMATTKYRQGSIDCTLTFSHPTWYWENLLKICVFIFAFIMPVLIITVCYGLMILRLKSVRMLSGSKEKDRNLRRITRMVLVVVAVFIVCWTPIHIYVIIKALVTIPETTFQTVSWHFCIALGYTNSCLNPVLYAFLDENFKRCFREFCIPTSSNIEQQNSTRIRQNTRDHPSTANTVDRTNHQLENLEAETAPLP

By EC50 is commonly meant the concentration that produces a half-maximal response.

The target of the test is Mu-type opioid receptor (Homo sapiens, UniProt P35372). Put plainly: Agonist activity at MOR (unknown origin) expressed in CHO cell membranes assessed as stimulation of [35S]GTPgammaS binding measured after 60 mins by liquid scintillation counting analysis. Background: GTPγS is a poorly hydrolysed GTP analogue; its binding reports G protein activation.

Turning to `CN(C)C[C@H]1CCCC[C@]1(O)c1cccc(O)c1` [O-DESMETHYL TRAMADOL], the EC50 was determined as 0.245 µM.
